# Reference: US20220233529A1, “COMBINATION THERAPY COMPRISING A2A/A2B INHIBITORS, PD-1/PD-L1 INHIBITORS, AND ANTI-CD73 ANTIBODIES” (Incyte Corporation, priority 2020, published 2022)
# The chains behind the UniProt entries cited, without tags or fusion partners. Where a name states a change or a piece, a line headed by the entry shows the natural chain unless it says otherwise.
# UniProt P29275, whole entry: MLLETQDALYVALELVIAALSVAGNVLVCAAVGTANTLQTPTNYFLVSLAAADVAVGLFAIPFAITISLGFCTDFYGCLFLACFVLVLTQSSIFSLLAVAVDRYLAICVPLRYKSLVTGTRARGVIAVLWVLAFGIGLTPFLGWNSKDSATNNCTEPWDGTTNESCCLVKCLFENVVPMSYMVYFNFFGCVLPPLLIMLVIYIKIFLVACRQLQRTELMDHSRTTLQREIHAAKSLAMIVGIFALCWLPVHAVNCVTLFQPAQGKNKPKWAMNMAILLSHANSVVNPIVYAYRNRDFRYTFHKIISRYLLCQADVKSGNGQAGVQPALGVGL
# Legend:
# Adenosine A2A Receptor = Adenosine A2A Receptor (Homo sapiens, UniProt P29274); test: A2A Tag-lite HTRF assay; settings: read-out: A2A—Ki; Tag-lite Adenosine A2A labeled cells; fluorescent antagonist ligand 12.5 nM; tested form: TFA salt
# [1] = target: human adenosine A2B receptor (Homo sapiens, UniProt P29275); test: Adenosine A2B Receptor cyclic AMP GS Assay; format: cell-based; settings: read-out: A2B—cAMP_EC50; HEK-293 cells expressing human A2B; agonist NECA 12 nM; cAMP accumulation; tested form: TFA salt
structure (smiles),measurement,setting,value
N#Cc1cccc(-c2nc(N)n3nc(Cn4nnc(-n5cccn5)n4)nc3c2-c2ccncn2)c1,Ki,Adenosine A2A Receptor,< 10 nM
same,EC50,[1],< 10 nM
